The entries are a selection whose mix differs from that of the whole data set. Some tests of the compounds listed are not included; inactive here does not mean inactive elsewhere. Active and inactive are the calls of the source. Calls come from the whole dose curve; as a rule, active = well fitted inhibition curve with a large enough effect; inconclusive = small, poorly fitted or top-dose-only effect; inactive = no such curve, though single readings can be large or run the other way.

Sequences of proteins named here, by UniProt entry; tags and fusion partners are left off.
UniProt O75604, whole entry: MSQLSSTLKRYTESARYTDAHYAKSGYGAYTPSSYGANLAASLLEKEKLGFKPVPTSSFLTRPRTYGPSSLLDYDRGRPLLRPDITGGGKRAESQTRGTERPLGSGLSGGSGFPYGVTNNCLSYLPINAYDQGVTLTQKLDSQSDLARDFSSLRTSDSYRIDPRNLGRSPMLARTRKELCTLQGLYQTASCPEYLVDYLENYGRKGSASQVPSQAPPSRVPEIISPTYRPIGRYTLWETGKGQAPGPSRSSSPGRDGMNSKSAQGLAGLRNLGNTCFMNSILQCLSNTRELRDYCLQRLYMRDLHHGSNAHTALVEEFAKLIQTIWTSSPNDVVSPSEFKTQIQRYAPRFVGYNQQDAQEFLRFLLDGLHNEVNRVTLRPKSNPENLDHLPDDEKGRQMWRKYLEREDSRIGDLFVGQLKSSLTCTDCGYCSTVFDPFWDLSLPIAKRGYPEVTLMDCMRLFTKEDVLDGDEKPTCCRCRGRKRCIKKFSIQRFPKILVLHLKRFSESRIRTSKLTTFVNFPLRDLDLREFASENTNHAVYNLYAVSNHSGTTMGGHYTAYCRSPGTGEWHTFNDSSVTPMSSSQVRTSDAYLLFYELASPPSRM

This assay deals with Ubiquitin carboxyl-terminal hydrolase 2 (Homo sapiens) (UniProt O75604). As to the kind of experiment: qHTS Assay for Inhibitors of Ubiquitin-specific Protease USP2a.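 Note: plate controls were DMSO for no effect and NEM full inhibition control for full effect; nearly all actives have a fitted effect of over 60% in size.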 The note with it: USP2a enzymatic assay; at 38.3 µM (top of the series). An excerpt: NIH Molecular Libraries Screening Centers Network [MLSCN]
NIH Chemical Genomics Center [NCGC]
PI Name: Nicholson, Ben. Progenra Inc, Malvern, PA
Homeostasis of cellular proteins is maintained through a combination of synthesis and degradation. The pathway that accounts for the majority of protein degradation is the ubiquitin-proteasomal pathway. Ubiquitin (Ub) is highly conserved in all cells and the generation of a multi-Ub chain typically targets proteins for degradation by the proteasome. However, ubiquitination is highly reversible and dynamic. Deubiquitination, the reverse process, is catalyzed through the action of enzymes referred to as isopeptidases or deubiquitinating enzymes (DUBs). […]
The reporter enzyme chosen is phospholipase A2 (PLA2), which has an absolute requirement for a free amino terminus. […] Thus, this coupled assay gives a fluorescent read-out, which is generated through the cleavage of the PLA2 reporter enzyme. […]
The assay buffer, prepared fresh at the day of the assay, contains 20mM Tris-HCl pH 8.0, 2mM CaCl2, 2mM beta-Mercaptoethanol, 0.1% DMSO. […] Plates were read immediately (0 Hour) on an Envision (Perkin Elmer) plate reader using the following wavelengths Ex 460nm /Em 535nm. Then, the assay plates were incubated for 2.5 hours and read again on the Envision using the same settings […]
Take `O=C(OC1CN2CCC1CC2)C(CO)(c1ccccc1)c1ccccc1` (configuration not stated): the activity change, negative = inhibition was inactive: 17.2%.
To `CN(C)c1cccc(C(=O)NCC2(N(C)C)CCCCC2)c1` belongs inactive: -8.64%.

(Values after PubChem BioAssay AID927 (National Center for Advancing Translational Sciences (NCATS), 2007).)
